Assay results taken from patent publication US4684620A, “Cyclic polypeptides having mu-receptor specificity” (Gibson-Stephens Neuropharmaceuticals, Inc., priority 1984, dated 1987).

Protein sequences, listed by entry. Tags and fused reporters are not part of them.
UniProt P32300, whole entry: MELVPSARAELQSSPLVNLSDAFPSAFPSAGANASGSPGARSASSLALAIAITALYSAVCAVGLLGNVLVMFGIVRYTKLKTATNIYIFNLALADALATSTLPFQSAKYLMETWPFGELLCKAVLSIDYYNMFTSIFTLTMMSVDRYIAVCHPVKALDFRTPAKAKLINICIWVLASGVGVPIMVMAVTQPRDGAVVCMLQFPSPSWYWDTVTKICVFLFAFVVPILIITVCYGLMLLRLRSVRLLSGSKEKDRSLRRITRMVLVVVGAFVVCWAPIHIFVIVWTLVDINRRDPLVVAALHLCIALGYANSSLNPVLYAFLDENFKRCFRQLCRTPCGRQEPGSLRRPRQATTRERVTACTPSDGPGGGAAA

Molecular target: T1, delta-type opiate receptors (Mus musculus, UniProt P32300)
T1 construct: from tissue; host or cells: mouse vas deferens
Assay: Mouse vas deferens (MVD) test, electrically stimulated contractions, antagonism of DPDPE
Conditions: DPDPE alone
Protocol: The compounds of the present invention were tested for their ability to inhibit electrically stimulated muscle contractions in the guinea pig ileum (GPI) assay and in the mouse vas deferens (MVD) assay.
The mouse vasa deferentia tests were conducted as follows: vas deferens of male mice were placed in a 60 ml tissue bath and attached to a force transducer. Contractions were induced by electrical stimulation. […] Percent inhibition was calculated.

DPDPE [reference compound]
Percent inhibition of contractions (1 nM): 6 ± 1%
Percent inhibition of contractions (3 nM): 11 ± 3%
Percent inhibition of contractions (10 nM): 22 ± 6%
Percent inhibition of contractions (30 nM): 42 ± 9%
Percent inhibition of contractions (100 nM): 53 ± 9%
Percent inhibition of contractions (300 nM): 77 ± 8%
